{"source": "patent US11986493B2", "about": "“Inorganic nitrite to improve cardiopulmonary hemodynamics” (University of Pittsburgh—Of the Commonwealth System of …, priority 2013, dated 2024)", "test_system": "subjects with pulmonary hypertension (WHO group I PAH, WHO group III PH)", "experiment": "Right heart catheterization: right heart/pulmonary artery hemodynamics, thermodilution cardiac output, PVR and SVR after inhaled NO and nebulized nitrite", "assay_type": "in vivo, human", "details": "patients with PH (WHO Group 1 and Group 3; n=6), inhaled doses of 45 mg and 90 mg", "note": "“Also recorded” adds a separate entry of the source.", "data": [{"compound": "O=NO", "note": "[nitrite, sodium nitrite]", "values": [{"measurement": "pulmonary vascular resistance (PVR)", "result": "dose-dependent reduction"}, {"measurement": "systemic vascular resistance (SVR)", "setting": "in most patients, listed as inhaled nitrite", "result": "without significantly altering; also recorded: does not significantly affect"}, {"measurement": "cardiac index", "setting": "listed as inhaled nitrite", "result": "dose-dependent improvements"}]}]}
